Experimental data: patent US8440725B2, “Synergistic preparations based on mixtures of glycerol ether with aromatic alcohol for controlling mycobacteria” (Air Liquide Sante (International), priority 2002, dated 2013)

Details: room temperature

With `CCCCC(CC)COCC(O)CO` (stereo not shown) [SC 50, 1-(2-ethylhexyl) glycerol ether] as the compound, how does the soluble in water read?
Its soluble in water is “up to 0.1 % by weight”.
